In this assay the target is T1, VMAT2 expressed by β-cells of the endocrine pancreas (Rattus norvegicus, UniProt Q01827).
T1 construct: The inventors next targeted VMAT2 expressed by β-cells of the endocrine pancreas with [11C]; DTBZ; from tissue; host or cells: pancreas (beta cells of the islets) of living Lewis rats, normal and STZ-induced diabetic
As to the kind of experiment: PET imaging with [11C]DTBZ of normal and STZ induced diabetic Lewis rats. Type of assay: in vivo.

Chains of the proteins cited; added tags and fusions are not shown.
UniProt Q01827, whole entry: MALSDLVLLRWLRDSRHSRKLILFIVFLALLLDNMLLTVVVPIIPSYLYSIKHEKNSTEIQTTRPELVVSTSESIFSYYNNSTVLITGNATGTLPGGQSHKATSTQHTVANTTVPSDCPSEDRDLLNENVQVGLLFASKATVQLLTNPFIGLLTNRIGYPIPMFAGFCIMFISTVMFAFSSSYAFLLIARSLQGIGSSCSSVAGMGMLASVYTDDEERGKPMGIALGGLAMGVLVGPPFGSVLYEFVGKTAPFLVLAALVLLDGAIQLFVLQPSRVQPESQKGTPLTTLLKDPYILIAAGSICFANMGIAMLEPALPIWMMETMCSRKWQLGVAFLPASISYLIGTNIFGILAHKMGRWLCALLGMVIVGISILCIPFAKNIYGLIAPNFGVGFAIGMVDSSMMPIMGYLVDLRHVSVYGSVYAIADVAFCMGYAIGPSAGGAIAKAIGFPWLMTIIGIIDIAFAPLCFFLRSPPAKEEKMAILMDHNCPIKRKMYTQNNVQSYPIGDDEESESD

Each structure is given as a SMILES string.

For `COc1cc2c(cc1O[11CH3])CCN1CC(CC(C)C)C(O)CC21` (centres unmarked) [[11C]DTBZ, [11C] dihydrotetrabenazine], for the setting “Lewis rats, relative to the total activity in the field, about 300 μCi (+)-α-[11C]DTBZ”, the “reduction of [11C]DTBZ uptake within the region of interest following STZ treatment” value is 20-40%. The “VMAT2 density in pancreata from [11C]DTBZ PET scans” value (STZ diabetic animals relative to pre-treatment levels and other control animals) is reported as “reduced, but not completely ablated”.

(Values after US20090202428A1, “Use of Dtbz for Imaging Endocrine Pancreas and Beta Cell Mass In Type 1 Diabetes” (priority 2005, published 2009).)
